Literature values, collected in US4444690A, “Technetium chelates” (priority 1982, dated 1984).

Conditions: in vivo; cited from earlier work

Substance: 1,2-Bis(mercaptoacetamido)ethane [Tc-DADS]
- renal clearance in words: cleared by the kidneys significantly faster than Tc-99m diethylenetriaminepentaacetic acid (Tc-99m DTPA, p<0.01) and slightly slower than I-131 o-iodohippurate (p>0.05)
